{"source": "PubChem BioAssay (EPA / NIEHS)", "note": "Where “and” joins values, the source holds several entries; their conditions need not be identical. Equal entries are not always repeated. Only a part is listed here, and it is no random draw. Some compounds were tested as several samples or in several runs, with calls that do not always agree. Calls of active or inactive are those of the source. How the source made its calls: active means hit-call score of the fitted dose curve at least 0.9, where 1 is the maximum; inactive means score below 0.9.", "data": [{"assay": "ATG_RORE_CIS: Attagene CIS-FACTORIAL HepG2 Assay for human RAR-related Orphan Receptor Element (RORE) (AID 2282959)", "settings": "HepG2 Attagene cis-factorial RORE reporter, mRNA; actives raise or lower the signal", "values": [{"smiles": "OCCN(CCO)CCO", "outcome": "inactive"}, {"smiles": "CCOC(=O)/C=C(C)/C=C/C[C@@H](C)CCCC(C)C", "outcome": "inactive"}, {"smiles": "CC(C)C(=O)Cl", "outcome": "inactive"}, {"smiles": "CCOP(=S)(OCC)SCS(=O)(=O)CC", "outcome": "inactive"}, {"smiles": "COC(=O)c1ccccc1S(=O)(=O)NC(=O)Nc1nc(C)nc(OC)n1", "outcome": "inactive"}, {"smiles": "CN(C)[C@@H]1C(=O)C(C(N)=O)=C(O)[C@@]2(O)C(=O)C3=C(O)c4c(O)cccc4[C@@](C)(O)[C@H]3C[C@@H]12", "outcome": "inactive"}, {"smiles": "c1ccc2c(c1)oc1ccccc12", "outcome": "inactive"}, {"smiles": "Cc1cccc(OP(=O)(Oc2cccc(C)c2)Oc2cccc(C)c2)c1", "outcome": "inactive"}, {"smiles": "ClC(Cl)=C(c1ccc(Cl)cc1)c1ccccc1Cl", "outcome": "inactive"}, {"smiles": "Oc1ccc(Cl)cc1Cc1ccccc1", "outcome": "inactive", "AC50": "active: 4.06 µM and active: 14.8 µM"}, {"smiles": "COc1nn(C(=O)NS(=O)(=O)c2ccccc2OC(F)(F)F)c(=O)n1C", "outcome": "inactive"}, {"smiles": "Cc1ccc2nc3sc(=O)sc3nc2c1", "outcome": "inactive"}, {"smiles": "CCOP(=S)(OCC)SCSCC", "AC50": "active: 180 µM"}, {"smiles": "C=CC(=O)OCCCCOC(=O)C=C", "AC50": "active: 25.8 µM"}, {"smiles": "O=C(Oc1ccc(Br)cc1)N1CCN2CCC1CC2", "outcome": "inactive"}, {"smiles": "CCOP(=O)(O)C(N)=O", "outcome": "inactive"}, {"smiles": "O=P(OCC(Br)CBr)(OCC(Br)CBr)OCC(Br)CBr", "note": "(stereo not drawn)", "AC50": "active: 23.9 µM"}, {"smiles": "O=C(O)COc1ccc(Cl)cc1Cl", "outcome": "inactive"}, {"smiles": "O=C(O)CCCc1ccc(N(CCCl)CCCl)cc1", "outcome": "inactive"}, {"smiles": "c1csc(-c2ccc(-c3cccs3)s2)c1", "AC50": "active: 2.57 µM"}, {"smiles": "CC(C)CCCCCCOC(=O)c1ccccc1C(=O)OCCCCCCC(C)C", "outcome": "inactive"}, {"smiles": "Oc1ccc(C(c2ccc(O)cc2)(C(F)(F)F)C(F)(F)F)cc1", "outcome": "inactive"}, {"smiles": "CNC(=O)Oc1cccc2c1OC(C)(C)C2", "outcome": "inactive"}, {"smiles": "O=S(=O)(C(Cl)(Cl)Cl)C(Cl)(Cl)Cl", "outcome": "inactive"}, {"smiles": "CC(C)Nc1nc(Cl)nc(NC(C)C)n1", "outcome": "inactive"}, {"smiles": "CCCCOCN(C(=O)CCl)c1c(CC)cccc1CC", "outcome": "inactive"}, {"smiles": "COC(=O)c1ccccc1S(=O)(=O)NC(=O)N(C)c1nc(C)nc(OC)n1", "outcome": "inactive"}, {"smiles": "O=P(Oc1ccccc1)(Oc1ccccc1)Oc1ccccc1", "outcome": "inactive"}, {"smiles": "Cc1ccc(N(SC(F)(Cl)Cl)S(=O)(=O)N(C)C)cc1", "outcome": "inactive"}, {"smiles": "CCCCCCCCOC(=O)c1ccc(C(=O)OCCCCCCCC)c(C(=O)OCCCCCCCC)c1", "outcome": "inactive"}, {"smiles": "COP(=S)(OC)Oc1cc(Cl)c(Cl)cc1Cl", "outcome": "inactive"}, {"smiles": "CCCCNP(N)(N)=S", "outcome": "inactive"}]}]}
